Test system: C9-500 BAC mice
Assay: Metformin in drinking water in C9-500 BAC transgenic mice (C9orf72 ALS/FTD model)
Format: in vivo
Conditions: for GA aggregates in the retrosplenial cortex: vs C9 controls

CN(C)C(=N)NC(=N)N [metformin]
DigiGait parameters improved, of eight that differed between untreated C9 and NT (Group A, treated from 2 months for 3 months, 5 mg/ml in drinking water, vs C9 water group): six of these parameters improved | GA aggregates in the retrosplenial cortex (Group A, treatment begun presymptomatic (8 wks)): decreased numbers of GA aggregates | GFAP IHC staining (neuroinflammation marker) (Group A, vs untreated C9 animals): significantly reduced | open field center time (Group A, vs untreated C9 mice): increased center time | GA aggregates in the retrosplenial cortex (Group B, treatment begun symptomatic (6 mos)): decreased numbers of GA aggregates

Reference: patent US12473545B2, “Regulation of RAN translation by PKR and eIF2α-P pathways” (University of Florida Research Foundation, Incorporated, priority 2017, dated 2025)
